9 compounds from PubChem BioAssay AID633 (Emory University Molecular Libraries Screening Center, 2007) can be followed below.

Sequences of proteins named here, by UniProt entry; tags and fusion partners are left off.
UniProt Q92731, whole entry: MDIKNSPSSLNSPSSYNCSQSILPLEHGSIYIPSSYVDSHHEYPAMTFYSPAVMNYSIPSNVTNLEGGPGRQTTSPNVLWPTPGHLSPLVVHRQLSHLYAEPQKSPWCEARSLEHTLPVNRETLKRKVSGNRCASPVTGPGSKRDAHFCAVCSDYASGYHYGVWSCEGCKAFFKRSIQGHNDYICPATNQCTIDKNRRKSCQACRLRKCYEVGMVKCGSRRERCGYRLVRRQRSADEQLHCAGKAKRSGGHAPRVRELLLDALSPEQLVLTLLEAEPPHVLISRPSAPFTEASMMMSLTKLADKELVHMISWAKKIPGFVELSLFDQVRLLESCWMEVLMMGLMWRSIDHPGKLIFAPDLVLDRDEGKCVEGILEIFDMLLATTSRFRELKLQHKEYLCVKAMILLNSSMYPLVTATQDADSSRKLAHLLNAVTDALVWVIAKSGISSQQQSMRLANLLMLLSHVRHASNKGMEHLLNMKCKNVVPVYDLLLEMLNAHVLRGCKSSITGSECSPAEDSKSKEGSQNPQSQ

This is a selection; strong and weak results do not stand in their true shares. Calls of active or inactive are those of the source.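 Rule for the calls: active = compounds whose percent inhibition of the receptor-coactivator binding signal exceeds about 50% in the single-dose screen (limit read from the data); inactive = the rest.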

The target of this experiment is Estrogen receptor beta (Homo sapiens) (UniProt Q92731). The experiment is described as follows: blockers of coactivator peptide binding to ERβ – biochemical, TR-FRET, ERβ LBD, SRC-1 peptide, primary screen (AID 633).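 Note: 0% = receptor plus peptide wells without compound and 100% = peptide-only wells.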 The settings on record: TR-FRET ER-beta LBD / SRC1-Cy5 peptide binding; at 25.6 µM; stronger effect = higher value. For orientation: Time-resolved FRET reads energy transfer from a long-lived donor to a nearby acceptor.
In general, inhibition refers to the change of the read-out against control, counted positive when it falls. In the case of `Fc1ccccc1NC1CCN(Cc2ccccc2)CC1`, the inhibition is inactive: 0.19%.
Regarding `CCC(CO)(C(=O)OC1CN2CCC1CC2)c1ccccc1` (centres undefined), the inhibition was inactive: -1.42%.
Turning to `CCOc1ncccc1C(=O)NCC1(N2CCOCC2)CCCCC1`, the inhibition was inactive: 2.45%.
To `N/C(=N\O)c1c(N)no[n+]1[O-]` belongs inactive: -8.74%.
As to `c1ccc(CN2CCC(Nc3ccccc3)CC2)cc1`, the inhibition is inactive: -1.53%.
For the compound `O=C(NCC1(N2CCOCC2)CCCCC1)c1cc(=O)[nH]c2ccccc12`, the inhibition was inactive: 6.05%.
To `N#CC1(Nc2ccccc2)CCN(CCc2ccccc2)CC1` belongs inactive: -19.1%; to `O=C(NCC1(N2CCOCC2)CCCCC1)c1cc2ccccc2o1`, inactive: 3.69%; to `O=C(OC1CN2CCC1CC2)C1c2ccccc2Oc2ccccc21` (centres undefined), inactive: -0.2%.
